Test results: BindingDB's records for 23769640
pKi: −log10 of the molar value.

Amino acid sequences for entries named in this document (tags omitted). Residues count along the entry.
UniProt P40881, 35-247 limits assumed: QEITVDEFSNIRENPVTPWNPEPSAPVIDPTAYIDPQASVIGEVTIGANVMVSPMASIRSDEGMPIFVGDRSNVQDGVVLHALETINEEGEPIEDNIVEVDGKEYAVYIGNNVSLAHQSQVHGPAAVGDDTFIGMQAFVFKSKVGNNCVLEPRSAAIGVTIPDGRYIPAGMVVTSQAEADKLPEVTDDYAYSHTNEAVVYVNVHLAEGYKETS

Molecular target: Carbonic anhydrase (Methanosarcina thermophila (strain ATCC 43570 / DSM 1825 / OCM 12 / VKM B-1830 / TM-1), UniProt P40881)

`N#CO` gave a pKi of 4.05.
